From patent US20130243707A1 (published 2013)

Assay: Super-solvent effect (Drug solubilized by combinations of solvent alcohols)
Conditions: PG 4 gr, PEG 400 3 gr, EtOH 1 gr, IPA 1.1 gr

## CC(C)Cc1ccc(C(C)C(=O)O)cc1 (stereo not shown) [Ibuprofen]
  Super-solvent Effect: 36.5%
